Measurements from PubChem BioAssay AID2168 (The Scripps Research Institute Molecular Screening Center, 2009).
Only a part is listed here, and it is no random draw. Activity calls are given as the source filed them.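 The calls were made as follows: active = inhibition above the average of all tested compounds plus 3 SD (cut at about 40% in these data); inactive = the rest.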

Chains of the proteins cited; added tags and fusions are not shown.
UniProt Q07820, whole entry, looked up: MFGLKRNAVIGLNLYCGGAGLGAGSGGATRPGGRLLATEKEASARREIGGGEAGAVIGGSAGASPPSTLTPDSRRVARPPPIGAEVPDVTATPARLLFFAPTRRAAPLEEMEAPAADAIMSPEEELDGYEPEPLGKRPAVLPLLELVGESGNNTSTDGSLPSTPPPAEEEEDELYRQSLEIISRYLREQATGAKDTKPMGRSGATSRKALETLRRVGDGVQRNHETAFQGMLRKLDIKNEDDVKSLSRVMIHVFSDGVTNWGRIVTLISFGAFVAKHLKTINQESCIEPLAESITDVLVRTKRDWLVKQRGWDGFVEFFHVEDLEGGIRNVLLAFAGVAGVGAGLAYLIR

biological target: Induced myeloid leukemia cell differentiation protein Mcl-1 (Homo sapiens) (UniProt Q07820); assay: MCL1-BIM peptide interaction disruptors – biochemical, fluorescence polarization, triplicate, confirmation (AID 2168); details: GST-MCL1 / FITC-Bim-BH3 fluorescence polarization; at 10.9 µM; hits give high values;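 also: 0% = DMSO wells and 100% = unlabeled Bim-BH3 control peptide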

SMILES	inhibition
CS(=O)(=O)c1cc([N+](=O)[O-])c2no[n+]([O-])c2c1	active: 69.3%
O=C(OC1CN2CCC1CC2)c1ccc(Cl)cc1 (stereo not given)	inactive: 4.71%
Nc1cccc2c([As](=O)(O)O)cccc12	active: 70%
CN(C(=O)Cc1ccc(Cl)c(Cl)c1)[C@H]1CCCC[C@@H]1N1CCCC1	inactive: 34.5%
C[N+]1=C2C=CC=CC=C2SC12C([N+](=O)[O-])=CC([N+](=O)[O-])=C[C-]2[N+](=O)[O-] (stereo not given)	inactive: 26.2%
